Target: 5-hydroxytryptamine 1D receptor (Bos taurus, UniProt Q8MI13)

The chains behind the UniProt entries cited, without tags or fusion partners.
UniProt Q8MI13, whole entry: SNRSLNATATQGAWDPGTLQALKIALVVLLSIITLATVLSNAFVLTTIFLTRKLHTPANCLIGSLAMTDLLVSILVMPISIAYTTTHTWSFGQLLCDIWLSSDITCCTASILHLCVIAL

COC(=O)[C@@H]1[C@H]2C[C@H]3c4[nH]c5ccccc5c4CCN3C[C@@H]2CC[C@@H]1O [yohimbic acid methyl ester]
Ki: 79 nM

Reference: BindingDB's records for doi:10.1073/pnas.89.8.3630 (Synaptic Pharmaceutical, 1992)
